According to patent US5079152A, “Antibody combining sites that exhibit stereoselective synthase activity, and methods using the same” (Scripps Clinic and Research Foundation, priority 1987, dated 1992):
pKi: −log10 of the molar value.

Tested on: monoclonal antibody 24B11 (receptor lactone synthase secreted by hybridoma 24B11, ATCC HB9488)
Assay: Kinetics of lactone-forming cyclization catalyzed by monoclonal receptor lactone synthase 24B11 (phenol release at 271 nm, Lineweaver-Burk)
Type: biochemical, mouse
Settings: linear competitive inhibition of cyclization of the substrate ligand; inhibitor 0.25 or 0.50 uM; receptor 2 uM; pH 7.0; 25 degrees C

Question: How did the pKi turn out when `CC(=O)NCC1CCCP(=O)(Oc2ccccc2)O1` (stereo not shown) was run?
Answer: Its pKi is 6.60.
